For 4 molecules, Ki results are on record in patent US20090326001A1, “THIENOPYRIDINE DERIVATIVES AS MODULATORS OF METABOTROPIC GLUTAMATE RECEPTORS” (priority 2005, published 2009).

Amino acid sequences for entries named in this document (tags omitted). Residues count along the entry.
UniProt P31424, whole entry: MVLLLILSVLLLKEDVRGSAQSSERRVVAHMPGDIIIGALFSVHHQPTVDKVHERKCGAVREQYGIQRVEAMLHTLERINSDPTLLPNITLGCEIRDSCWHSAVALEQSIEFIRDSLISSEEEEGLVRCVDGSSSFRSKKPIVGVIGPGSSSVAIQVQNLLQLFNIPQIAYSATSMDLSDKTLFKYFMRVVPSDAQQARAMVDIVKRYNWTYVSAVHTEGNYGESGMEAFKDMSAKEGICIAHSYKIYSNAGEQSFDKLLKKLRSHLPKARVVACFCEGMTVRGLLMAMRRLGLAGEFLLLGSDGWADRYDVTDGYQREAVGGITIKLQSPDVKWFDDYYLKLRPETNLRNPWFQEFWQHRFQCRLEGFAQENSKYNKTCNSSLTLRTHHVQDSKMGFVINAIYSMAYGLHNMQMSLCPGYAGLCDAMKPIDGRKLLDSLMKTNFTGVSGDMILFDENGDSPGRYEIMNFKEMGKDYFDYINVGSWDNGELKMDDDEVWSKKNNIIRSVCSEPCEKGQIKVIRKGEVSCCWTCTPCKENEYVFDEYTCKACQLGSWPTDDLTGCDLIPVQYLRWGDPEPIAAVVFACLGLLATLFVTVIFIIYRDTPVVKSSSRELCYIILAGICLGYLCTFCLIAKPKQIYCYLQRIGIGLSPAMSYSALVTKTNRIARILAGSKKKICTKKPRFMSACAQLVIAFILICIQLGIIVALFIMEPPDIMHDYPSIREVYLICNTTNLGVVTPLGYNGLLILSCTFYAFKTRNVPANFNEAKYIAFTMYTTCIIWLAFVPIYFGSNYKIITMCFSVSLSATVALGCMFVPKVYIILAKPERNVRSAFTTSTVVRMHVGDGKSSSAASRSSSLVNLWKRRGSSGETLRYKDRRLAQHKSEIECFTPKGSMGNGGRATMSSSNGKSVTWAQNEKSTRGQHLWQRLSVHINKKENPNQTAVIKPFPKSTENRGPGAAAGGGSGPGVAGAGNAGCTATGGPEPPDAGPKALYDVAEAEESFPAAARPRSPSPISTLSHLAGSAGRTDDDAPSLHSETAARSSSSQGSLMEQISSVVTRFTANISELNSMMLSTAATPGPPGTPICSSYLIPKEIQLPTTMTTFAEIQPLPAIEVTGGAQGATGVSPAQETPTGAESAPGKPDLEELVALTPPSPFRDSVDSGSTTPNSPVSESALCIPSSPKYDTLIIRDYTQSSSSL
UniProt P23385, 19-1199 limits assumed: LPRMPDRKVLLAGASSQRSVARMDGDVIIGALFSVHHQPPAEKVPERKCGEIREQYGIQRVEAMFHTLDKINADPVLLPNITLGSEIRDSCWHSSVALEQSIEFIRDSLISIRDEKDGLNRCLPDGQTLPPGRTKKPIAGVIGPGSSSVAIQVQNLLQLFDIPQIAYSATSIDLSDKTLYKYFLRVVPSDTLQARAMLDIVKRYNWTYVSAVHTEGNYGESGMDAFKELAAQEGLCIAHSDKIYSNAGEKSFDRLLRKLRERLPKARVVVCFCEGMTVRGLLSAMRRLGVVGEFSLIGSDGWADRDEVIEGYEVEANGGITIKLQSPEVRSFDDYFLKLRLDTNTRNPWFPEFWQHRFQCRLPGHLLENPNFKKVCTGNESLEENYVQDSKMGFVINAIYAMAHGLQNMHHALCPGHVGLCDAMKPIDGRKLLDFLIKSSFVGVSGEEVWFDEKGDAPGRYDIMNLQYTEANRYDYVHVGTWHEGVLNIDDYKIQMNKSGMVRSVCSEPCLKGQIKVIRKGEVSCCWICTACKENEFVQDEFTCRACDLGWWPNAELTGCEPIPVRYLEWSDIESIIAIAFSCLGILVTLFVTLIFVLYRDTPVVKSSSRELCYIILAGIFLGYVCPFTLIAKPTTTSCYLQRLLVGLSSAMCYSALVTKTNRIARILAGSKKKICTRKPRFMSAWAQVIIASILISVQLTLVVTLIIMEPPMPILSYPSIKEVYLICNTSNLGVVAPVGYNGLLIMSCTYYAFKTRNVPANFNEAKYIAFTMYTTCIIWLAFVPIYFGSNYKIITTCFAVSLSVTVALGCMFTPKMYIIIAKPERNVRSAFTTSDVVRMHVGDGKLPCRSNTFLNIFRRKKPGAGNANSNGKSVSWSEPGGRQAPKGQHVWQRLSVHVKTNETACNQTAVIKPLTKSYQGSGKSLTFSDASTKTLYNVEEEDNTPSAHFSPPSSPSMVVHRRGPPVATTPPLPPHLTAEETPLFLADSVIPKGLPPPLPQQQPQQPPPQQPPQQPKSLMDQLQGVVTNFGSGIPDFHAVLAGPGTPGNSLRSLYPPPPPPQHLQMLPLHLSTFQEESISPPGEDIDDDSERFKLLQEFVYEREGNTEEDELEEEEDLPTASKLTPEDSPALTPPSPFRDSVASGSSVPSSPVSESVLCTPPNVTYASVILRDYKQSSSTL

One assay deals with mGluR5 (UniProt P31424). In words: mGluR5 receptor binding test ([3H]-M-MPEP displacement). Particulars: read-out: mGlu5 Ki; radioligand [3H]-M-MPEP 2 nM; table does not say rat cerebro-cortical membrane or human mGluR5a A18 cells.
Another assay has as its target rat mGluR1 (Rattus norvegicus, UniProt P23385). In words: mGluR1 receptor binding test ([3H]R214127 displacement, rat cerebellar membrane). The note with it: read-out: mGlu1 Ki, radioligand [3H]R214127 3 nM. The method, then:
MGluR1 receptor binding testes were performed according to modified method of Lavreysen et al. (Mol. Pharm., 2003, 63, 1082). Based on the high homology between the human and rat mGluR1 receptors, rat cerebellar membrane preparation was used to determine the binding characteristics of reference compounds and novel compounds to the rat mGluR1. As radioligand [3H]R214127 (3 nM) was used and the nonspecific binding was determined in the presence of 1 μM of R214127.
IC-50 values were determined from displacement curves by nonlinear regression analysis and were converted by equation method of Cheng and Prusoff (Biochem. Pharmacol., 1973, 22, 3099) to Ki values.

Each structure is given as a SMILES string. Bounds are passed on as bounds.

Broadly, the Ki is a measure of affinity in units of concentration, obtained from inhibition or displacement. As to `O=C(/C=C/c1cccc(F)c1)c1sc2ncccc2c1-c1ccc(F)cc1`, the Ki was greater than 1500 nM on mGluR5 and less than 500 nM at rat mGluR1.

For `CN(C(=O)c1sc2ncccc2c1-c1ccc(Cl)cc1)c1ccc(F)cc1`, the results for the Ki at mGluR5 and at rat mGluR1 were greater than 1500 nM and 500 to 1500 nM, respectively.

With `O=C(CCc1ccc(F)cc1)c1sc2ncccc2c1-c1ccccc1`, the Ki at mGluR5 and on rat mGluR1 was less than 500 nM each time.

As to `O=C(Nc1ccc(F)cc1)c1sc2ncccc2c1-c1ccc(Cl)cc1`, the Ki on mGluR5 and at rat mGluR1 was greater than 1500 nM in each case.
